Assay results taken from article doi:10.1101/2023.07.20.549907, “Mechanism of outer kinetochore assembly on microtubules and its regulation by mitotic error correction” (bioRxiv, 2023).

Target: T1, Ndc80 subunit of the Ndc80 complex (S. cerevisiae, UniProt P40460 1-691)
T1 construct: Ndc80 subunit of the budding yeast Ndc80 complex; Stood in the structure as part of the Ndc80 complex; also called Ndc80^CH; Ndc80^CC; source: as subunit of m1
T1 sequence (looked up): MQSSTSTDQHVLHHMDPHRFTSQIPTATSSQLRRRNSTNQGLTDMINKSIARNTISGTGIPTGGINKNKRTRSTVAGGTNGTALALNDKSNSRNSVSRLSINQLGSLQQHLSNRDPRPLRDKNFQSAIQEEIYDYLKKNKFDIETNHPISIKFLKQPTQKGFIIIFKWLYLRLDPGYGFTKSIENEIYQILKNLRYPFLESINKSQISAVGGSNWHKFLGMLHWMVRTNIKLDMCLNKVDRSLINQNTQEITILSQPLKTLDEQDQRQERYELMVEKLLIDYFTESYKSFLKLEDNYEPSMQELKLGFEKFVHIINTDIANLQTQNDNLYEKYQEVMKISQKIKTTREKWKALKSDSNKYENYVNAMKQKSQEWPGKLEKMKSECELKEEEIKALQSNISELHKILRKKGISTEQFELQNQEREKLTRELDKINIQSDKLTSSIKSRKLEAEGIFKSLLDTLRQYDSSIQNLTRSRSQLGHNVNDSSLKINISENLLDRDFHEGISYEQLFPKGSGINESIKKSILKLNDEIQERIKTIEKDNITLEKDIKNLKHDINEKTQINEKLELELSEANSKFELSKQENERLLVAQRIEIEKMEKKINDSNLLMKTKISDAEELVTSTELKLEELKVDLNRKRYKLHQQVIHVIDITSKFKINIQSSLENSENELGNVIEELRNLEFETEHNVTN
Test: cryo-EM structure; complexes assembled on cryo-EM grids by step-wise addition of taxol-stabilized microtubule filaments, Ndc80c and Dam1c; sub-boxing, signal subtraction and symmetry expansion for the separate reconstructions
Details: both partners purified

binding result: binds
B1: Nuf2 subunit of the Ndc80 complex (natural protein, S. cerevisiae, UniProt P33895 1-451, looked up)
chain: MSRNQDVFPILDLQELVICLQSCDFALATQENISRPTSDYMVTLYKQIIENFMGISVESLLNSSNQETGDGHLQEENENIYLDTLNVLVLNKICFKFFENIGVQDFNMTDLYKPEAQRTQRLLSAVVNYARFREERMFDCNSFILQMESLLGQLRSKFDDYNLIQQQLKQYEDVDGDNIPDEQELQKLEEQNKELEIQLKKLTKIQETLSIDYNDYKISKQSIFKDLEALSFQIVELESNRDKLIKISNTDMEELSEGIKELNDLLIQRKKTLDDLTAQQKNLQDTVTTFETIISELYDVLRIISSEVQESNRTETELVGLKQNLINNKLKLMNVLETGIMYKLEILQEQLDLQLKNLEKLSQDTKEESRLNDTKLMDLQIKYENEIKPKIDKTDIFIQEELISGKINKLNDEIKQLQKDFEVEVKEIEIEYSLLSGHINKYMNEMLEYMQ
notes: Nuf2 subunit of the budding yeast Ndc80 complex; Stood in the structure as part of the Ndc80 complex; also called Nuf2^CH; Nuf2^CC; source: as subunit of m1
